What was measured:
MC3 receptor (MC3R) = MC3 receptor (MC3R) (Homo sapiens, UniProt P41968); experiment: Nle4, D-Phe7-α-MSH inhibition at the MC3 receptor (competition binding, SPA, CHO-CRE MC3R membranes); conditions: read-out: MC3 MSH Ki
Text: Nle4, D-Phe7-α-MSH Inhibition at the MC3 Receptor
(§1) Nle4, D-Phe7-α-MSH is a stable analogue of melanocyte-stimulating hormone (MSH), which is an agonist at the MC3 receptor (MC3R). Compounds can be evaluated for their ability to inhibit Nle4, D-Phe7-α-MSH binding to membranes from cells expressing the MC3R using a competition binding assay versus [^125I] Nle4, D-Phe7-α-MSH.
(§2) Cells expressing the MC3R were subject to homogenisation and the membrane fragment isolated by differential centrifugation. CHO-CRE MC3R cell membranes were coupled to PVT-PEI-WGA SPA Beads type A for 2 hours, spun at 1000 RPM for 5 mins and suspended to a final assay concentration of 800 ug bead/ml (1.2 ug membrane, 40 ug bead per well). Bead/membrane mix was incubated with 0.06 nM [^125I] Nle4, D-Phe7-α-MSH and 11 half-log concentrations of competitor ligand, in duplicate, in a total volume of 50 μl buffer per well (25 mM HEPES, 1 mM MgCl2, 2.5 mM CaCl2, 1% Pluronic F68, 1 complete EDTA protease inhibitor tablet/50 ml pH7). Non-specific binding was determined by the inclusion of 100 nM SHU9119. The reaction was initiated by the addition of bead/membranes and plates were incubated at room temperature for 12 hours (the first hour on a plate shaker), after which the amount of radioactivity present was determined using a Wallac plate counter. Ki values were determined by data analysis using appropriate software.

The chains behind the UniProt entries cited, without tags or fusion partners.
UniProt P41968, whole entry: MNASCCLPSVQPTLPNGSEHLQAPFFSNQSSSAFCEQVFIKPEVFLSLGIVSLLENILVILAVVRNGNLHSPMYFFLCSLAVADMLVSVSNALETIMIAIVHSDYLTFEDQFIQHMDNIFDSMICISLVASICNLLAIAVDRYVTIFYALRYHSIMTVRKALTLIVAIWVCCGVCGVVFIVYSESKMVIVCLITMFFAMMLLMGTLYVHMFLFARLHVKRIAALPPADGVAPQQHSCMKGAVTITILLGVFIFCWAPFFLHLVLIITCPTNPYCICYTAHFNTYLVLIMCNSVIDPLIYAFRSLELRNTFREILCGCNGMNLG
UniProt P32245, whole entry: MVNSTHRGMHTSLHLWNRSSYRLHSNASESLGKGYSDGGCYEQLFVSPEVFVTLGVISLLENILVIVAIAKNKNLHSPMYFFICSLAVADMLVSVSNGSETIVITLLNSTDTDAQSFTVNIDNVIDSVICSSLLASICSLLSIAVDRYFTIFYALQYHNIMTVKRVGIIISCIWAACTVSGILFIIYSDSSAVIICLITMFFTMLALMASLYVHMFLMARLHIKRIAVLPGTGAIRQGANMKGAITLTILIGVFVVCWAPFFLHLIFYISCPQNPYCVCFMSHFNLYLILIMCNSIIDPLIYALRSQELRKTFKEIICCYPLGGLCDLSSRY
UniProt P08684, whole entry: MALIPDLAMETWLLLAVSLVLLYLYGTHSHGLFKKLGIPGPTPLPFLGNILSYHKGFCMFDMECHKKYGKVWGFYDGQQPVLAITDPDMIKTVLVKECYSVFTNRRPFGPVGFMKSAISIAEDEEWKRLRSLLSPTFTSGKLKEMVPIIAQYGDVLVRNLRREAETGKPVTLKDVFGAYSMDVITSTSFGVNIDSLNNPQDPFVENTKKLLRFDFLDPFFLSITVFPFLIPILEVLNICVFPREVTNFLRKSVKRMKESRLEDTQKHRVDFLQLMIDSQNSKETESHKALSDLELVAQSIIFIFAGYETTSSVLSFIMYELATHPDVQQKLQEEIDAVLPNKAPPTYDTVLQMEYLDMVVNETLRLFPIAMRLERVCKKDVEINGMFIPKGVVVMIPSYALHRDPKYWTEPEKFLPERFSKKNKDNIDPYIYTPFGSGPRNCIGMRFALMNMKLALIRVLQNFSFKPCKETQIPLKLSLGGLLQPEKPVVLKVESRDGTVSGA

MC4 receptor (MC4R) = MC4 receptor (MC4R) (Homo sapiens, UniProt P32245); experiment: Nle4, D-Phe7-α-MSH inhibition at the MC4 receptor (competition binding, SPA, CHO-CRE MC4R membranes); conditions: read-out: MC4 MSH Ki
Text: Nle4, D-Phe7-α-MSH Inhibition at the MC4 Receptor
as §1, with “MC4” for “MC3”, “(MC4R).” for “(MC3R).”, “MC4R” for “MC3R”
as §2, with “MC4R” for “MC3R”, “min” for “mins”, “a” for “a final assay”, “300” for “800”, “(0.15” for “(1.2”, “15” for “40”

MC4 receptor = MC4 receptor (Homo sapiens, UniProt P32245); experiment: MC4 EC50 functional potency (protocol E of US2005/0176772 / WO 2005/077935); conditions: read-out: MC4 EC50
Procedure: The compounds of formula (I) of the present invention have utility as MCR4 agonists in the treatment of various disease states.
MC5 and MC4 EC50 activity was determined as described by assay protocols D and E, respectively, in US2005/0176772 (pages 28-30).

cytochrome P450 3A4 = cytochrome P450 3A4 (Homo sapiens, UniProt P08684); conditions: 3 µM
Procedure: High Density Drug-Drug Interactions (DDI) 3 μM Cocktail Screen
A drug interaction is a situation in which a substance affects the activity of another drug, i.e. the effects are increased or decreased, or together they produce a new effect that neither produces on its own. Drug interactions may be the result of various processes but a relatively common one is where one drug affects the pharmacokinetics of another by inhibiting the cytochrome P450 that metabolises it. Because of the importance of these phenomena, assessment of the DDI potential for new chemical entities (NCEs) is considered important early on in the drug discovery process. […]
The substrate cocktail approach for P450 DDI utilizes human liver microsomes together with isoform-specific clinical drug probes and permits the simultaneous measurement of the inhibition of P450 1A2, 2C9, 2D6 & 3A4 activities in a single incubation. […] This method has been thoroughly tested and evaluated using standard compounds.
Appearance of the metabolite of each substrate is measured over time in the presence and absence of the NCE (test compound/inhibitor) at a concentration of 3 μM. The compounds are assessed for their inhibitory potential as a percentage value and interpreted using the following scheme.

`CS(=O)(=O)N1CCN(C(=O)[C@@H]2CN(c3ccccn3)C[C@H]2c2ccc(F)cc2F)CCC1c1ccccc1` (stereo partly shown) showed a Ki (MC3 receptor (MC3R)) of 5370 nM, a Ki (MC4 receptor (MC4R)) of 1390 nM and an EC50 (MC4 receptor) of 122 nM. The inhibition (cytochrome P450 3A4) was 41%.

— patent US8592403B2, “Diazepine and diazocane compounds as MC4 agonists” (Pfizer Limited, priority 2008, dated 2013)
